# scFv variants of Ab-14 (light chain) against a SARS-CoV-2 spike peptide

Binding partner: SARS-CoV-2 spike HR2 peptide, sequence PDVDLGDISGINAS.

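The starting antibody came from a phage panning campaign against this peptide. The variants were designed computationally from a first round of random CDR variants and then made and measured. Group labels follow the data file (Ctrl: baseline library sampled from a position-specific scoring matrix, with some repeated check sequences; GP: Gaussian process model; HC: hill climbing; Gen: genetic algorithm; Gibbs: Gibbs sampling; a sequence that several methods proposed may carry one label only). The assay is AlphaSeq: two haploid yeast populations carry antibody and antigen on their surface. The frequency of each diploid, read from paired DNA barcodes, reflects how well the two displayed proteins bind. Scores were corrected for input abundance and mapped to Kd with protein pairs of known affinity run in the same pool. There are six technical replicates.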

Each scFv is VH, a 15-residue (Gly4Ser)3 linker, VL, as in the parent Ab-14, and differs from it in the CDRs of the light chain only.
VH: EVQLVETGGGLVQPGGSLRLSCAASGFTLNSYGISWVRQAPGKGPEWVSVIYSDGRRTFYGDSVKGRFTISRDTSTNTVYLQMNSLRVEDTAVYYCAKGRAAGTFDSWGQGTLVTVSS
VL: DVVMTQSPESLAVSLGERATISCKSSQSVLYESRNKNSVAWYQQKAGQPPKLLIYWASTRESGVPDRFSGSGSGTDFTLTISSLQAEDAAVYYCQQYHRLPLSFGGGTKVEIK

The parent's light chain CDRs are KSSQSVLYESRNKNSVA, WASTRES, QQYHRLPLS; each variant's own CDRs replace them letter for letter. Variants here have at most six changes. The Kd shown is the geometric mean over detected replicates; a lower Kd is a better binder. Where no diploid with the target was found in any replicate, the entry reads "nd": below detection, most likely a poor binder, though not proof of it. The authors' rule: three or more of the six replicates give a measured affinity, fewer mean a poor binder.

* KLSQSVDYESRQKNSVA, NASTRLS, QQYHRLPLS [GP_Gibbs]: 4.6 nM (6 of 6 replicates; controls 1 of 18)
* KSSQSVLYESRNKNSVA, SASTPYS, QQYHRLPLS [Ctrl]: 13 nM (6 of 6 replicates; controls 0 of 18)
* KSSQSVLYESRDKNSVA, WASLRES, QQYHRLPLS [Ctrl]: nd (0 of 6 replicates; controls 1 of 18)
* KISQSVLYEQRAQNSVA, EASTRED, QQYHRLPLS [GP_Gibbs]: 960 pM (6 of 6 replicates; controls 0 of 18)
* KLDGSFLYESRNKNSVA, EASERES, QQYHRLPLS [GP_Gibbs]: 4.3 nM (6 of 6 replicates; controls 0 of 18)
* KVSQSWLYESRNKNSVA, GASLRES, QQYHRLPLS [GP_HC]: 1.4 nM (6 of 6 replicates; controls 2 of 18)
* KSSQSDLYESNNKNSVA, WASTRES, QQYHRLPLS [Ctrl]: 5.5 nM (6 of 6 replicates; controls 0 of 18)
* KFQQSQLYESRNKNSVA, NASCRMS, QQYHRLPLS [GP_Gibbs]: 1.9 nM (6 of 6 replicates; controls 1 of 18)
* KSGQSVLYESRNQNQVA, MASTRES, QQYHRLPLS [Ctrl]: 760 nM (3 of 6 replicates; controls 0 of 18)
* KSSQSVLYESNNKNSVA, WASTREE, QQYHRLPLS [Ctrl]: 68 nM (6 of 6 replicates; controls 0 of 18)
* KFSQSVLYEWRNKNSVA, DASTRES, QQYHRLPLS [GP_HC]: 790 pM (6 of 6 replicates; controls 1 of 18)
* KFSQSVLYESRNKNGVA, NASTRES, QQYHRLPLS [GP_HC]: 2.0 nM (6 of 6 replicates; controls 0 of 18)
* KLSQSKLYESRNKNNVA, EASTRES, QQYHRLPLS [GP_Gen]: 780 pM (6 of 6 replicates; controls 1 of 18)
* KSSQSVLYESLNANSVA, WAYTRES, QQYHRLPLS [Ctrl]: nd (0 of 6 replicates; controls 0 of 18)
* KLSMLHDYESRNKNSVA, QASTRES, QQYHRLPLS [GP_Gibbs]: 600 pM (6 of 6 replicates; controls 1 of 18)
* VLSQSVLYESRNKNSVA, NASTRMS, QQYHRLPLS [GP_Gen]: 630 pM (6 of 6 replicates; controls 1 of 18)
* KSSQSVLYESRNKNSVA, WASTRES, QQYHRPPLS [Ctrl]: 52 nM (1 of 6 replicates; controls 0 of 18)
* KLSQSTLYESRNKNSVA, HASQRES, QQYHRLPLS [GP_Gen]: 410 pM (6 of 6 replicates; controls 1 of 18)
* KFSQSVLYESRAKNSVA, EASTRES, QQYHRLPLS [GP_HC]: 420 pM (6 of 6 replicates; controls 3 of 18)
* KLSQSWLYESRNKNSVA, EASTRCS, QQYHRLPLS [GP_Gen]: 800 pM (6 of 6 replicates; controls 0 of 18)
* VLQQSVLPESRNKNSVA, SASTRLS, QQYHRLPLS [GP_Gibbs]: 2.8 nM (6 of 6 replicates; controls 1 of 18)
* KLPNSTLYESRQKNSVA, WASTRLS, QQYHRLPLS [GP_HC]: 20 nM (6 of 6 replicates; controls 1 of 18)
* KLPQSVLYESRNKNSVA, QASQRES, QQYHRLPLS [GP_Gen]: 1.6 nM (6 of 6 replicates; controls 1 of 18)
* ASSQSVLYESYNKNSVA, WASTRES, QQYHRLPLS [Ctrl]: 290 nM (1 of 6 replicates; controls 0 of 18)
* KILQSVLYESRNKNSVA, HASTRES, QQYHRLPLS [GP_HC]: 1.8 nM (6 of 6 replicates; controls 0 of 18)
* KLSQSVLYESRWKNNVA, NASTRES, QQYHRLPLS [GP_Gen]: 1.6 nM (6 of 6 replicates; controls 0 of 18)
* KVSQSVLYQSRNKNSVA, DASTRES, QQYHRLPLS [GP_Gen]: 1.2 nM (6 of 6 replicates; controls 0 of 18)
* KSSISYSAESRNKNSVA, EASTRES, QQYHRLPLS [GP_HC]: 3.8 nM (6 of 6 replicates; controls 0 of 18)
* KSSISYLYESMNKNSVA, AGSTRES, QQYHRLPLS [GP_HC]: 2.8 nM (6 of 6 replicates; controls 2 of 18)
* KSSQSVQFESRNKNSVA, DASTRES, QQYHRLPLS [GP_HC]: 1.8 nM (6 of 6 replicates; controls 1 of 18)
* KSSQSVLYESDNDNSVA, WASTRES, QVYHRLPLS [Ctrl]: nd (0 of 6 replicates; controls 1 of 18)
* KSSQSVLYEGADLNSVA, WASQRES, QQYHRLPLS [Ctrl]: 220 nM (3 of 6 replicates; controls 0 of 18)
* KLSQSWLYESRNSNNVA, NASTRES, QQYHRLPLS [GP_Gen]: 530 pM (6 of 6 replicates; controls 1 of 18)
* KSSQSVGGEQRNKNSVA, DISTRES, QQYHRLPLS [GP_HC]: 610 pM (6 of 6 replicates; controls 1 of 18)
* KSQQSQLYESRNKNNVA, HASTRED, QQYHRLPLS [GP_HC]: 990 pM (6 of 6 replicates; controls 1 of 18)
* KISISYLYESRNKNSVA, AASTRES, QQYHRLPLS [GP_HC]: 1.2 nM (6 of 6 replicates; controls 0 of 18)
* KLQQSQLYESRNKNSVA, NASTRMS, QQYHRLPLS [GP_Gen]: 3.0 nM (6 of 6 replicates; controls 2 of 18)

From the list, the first 3 with no signal in any replicate:

* KSSQSVLYESRDKNSVA, WASLRES, QQYHRLPLS [Ctrl]: nd (0 of 6 replicates; controls 1 of 18)
* KSSQSVLYESLNANSVA, WAYTRES, QQYHRLPLS [Ctrl]: nd (0 of 6 replicates; controls 0 of 18)
* KSSQSVLYESDNDNSVA, WASTRES, QVYHRLPLS [Ctrl]: nd (0 of 6 replicates; controls 1 of 18)

The range of this assay differs from that of the first round, and the authors advise against merging the two. Empty control strains, which show no peptide, gave a signal in 4% of pairings with all light chain designs; the median was 430 nM and 95% of these signals were weaker than 38 nM. No background was subtracted. Also given: how often the same scFv was detected with the empty control strains.

Source: Li et al. 2023 (doi:10.1038/s41467-023-39022-2), MIT Lincoln Laboratory and A-Alpha Bio; data file from the FLAb repository.